Test results reported in patent US20070197525A1, “Novel tetracyclic tetrahydrofuran derivatives” (priority 2004, published 2007).

Protein sequences, listed by entry. Tags and fused reporters are not part of them. Lines headed by an entry give the natural chain unless they say otherwise; changes in a name come on top. Residues count along the entry.
UniProt P28335, 33-458 limits assumed: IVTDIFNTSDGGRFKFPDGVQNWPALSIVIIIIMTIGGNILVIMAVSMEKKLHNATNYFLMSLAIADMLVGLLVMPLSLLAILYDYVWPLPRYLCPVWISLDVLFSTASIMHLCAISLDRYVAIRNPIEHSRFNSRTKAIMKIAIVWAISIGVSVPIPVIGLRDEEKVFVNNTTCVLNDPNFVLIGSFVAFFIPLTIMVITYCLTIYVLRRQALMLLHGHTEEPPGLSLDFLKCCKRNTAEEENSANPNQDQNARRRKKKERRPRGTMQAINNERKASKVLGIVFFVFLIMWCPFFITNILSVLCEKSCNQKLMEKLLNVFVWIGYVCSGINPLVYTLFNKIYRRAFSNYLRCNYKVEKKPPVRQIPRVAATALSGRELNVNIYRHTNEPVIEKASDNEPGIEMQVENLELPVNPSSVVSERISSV
UniProt P14416, whole entry: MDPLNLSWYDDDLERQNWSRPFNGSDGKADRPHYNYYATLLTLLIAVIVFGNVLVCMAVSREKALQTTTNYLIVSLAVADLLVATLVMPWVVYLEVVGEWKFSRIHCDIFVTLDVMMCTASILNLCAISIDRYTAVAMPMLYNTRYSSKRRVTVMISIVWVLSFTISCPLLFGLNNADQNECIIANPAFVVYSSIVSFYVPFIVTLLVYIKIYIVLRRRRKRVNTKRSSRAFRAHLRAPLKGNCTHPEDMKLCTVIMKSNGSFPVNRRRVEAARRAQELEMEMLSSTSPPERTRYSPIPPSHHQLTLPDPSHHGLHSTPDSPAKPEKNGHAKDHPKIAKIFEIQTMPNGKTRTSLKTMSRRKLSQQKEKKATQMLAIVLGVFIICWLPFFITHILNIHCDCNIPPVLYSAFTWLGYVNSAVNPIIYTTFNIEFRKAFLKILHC
UniProt P28223, whole entry: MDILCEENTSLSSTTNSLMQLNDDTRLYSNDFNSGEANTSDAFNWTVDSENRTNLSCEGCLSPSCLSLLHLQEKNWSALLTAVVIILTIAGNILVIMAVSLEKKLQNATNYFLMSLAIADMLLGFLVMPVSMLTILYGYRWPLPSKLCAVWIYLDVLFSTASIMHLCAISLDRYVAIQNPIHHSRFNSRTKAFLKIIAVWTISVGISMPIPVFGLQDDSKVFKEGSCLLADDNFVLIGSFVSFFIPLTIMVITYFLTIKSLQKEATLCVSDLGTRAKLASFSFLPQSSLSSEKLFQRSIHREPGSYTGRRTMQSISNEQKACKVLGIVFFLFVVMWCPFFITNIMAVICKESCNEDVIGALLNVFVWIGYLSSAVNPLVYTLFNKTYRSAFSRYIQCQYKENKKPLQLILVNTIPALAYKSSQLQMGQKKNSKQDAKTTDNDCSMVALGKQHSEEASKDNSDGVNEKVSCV
UniProt Q63380, 1-617: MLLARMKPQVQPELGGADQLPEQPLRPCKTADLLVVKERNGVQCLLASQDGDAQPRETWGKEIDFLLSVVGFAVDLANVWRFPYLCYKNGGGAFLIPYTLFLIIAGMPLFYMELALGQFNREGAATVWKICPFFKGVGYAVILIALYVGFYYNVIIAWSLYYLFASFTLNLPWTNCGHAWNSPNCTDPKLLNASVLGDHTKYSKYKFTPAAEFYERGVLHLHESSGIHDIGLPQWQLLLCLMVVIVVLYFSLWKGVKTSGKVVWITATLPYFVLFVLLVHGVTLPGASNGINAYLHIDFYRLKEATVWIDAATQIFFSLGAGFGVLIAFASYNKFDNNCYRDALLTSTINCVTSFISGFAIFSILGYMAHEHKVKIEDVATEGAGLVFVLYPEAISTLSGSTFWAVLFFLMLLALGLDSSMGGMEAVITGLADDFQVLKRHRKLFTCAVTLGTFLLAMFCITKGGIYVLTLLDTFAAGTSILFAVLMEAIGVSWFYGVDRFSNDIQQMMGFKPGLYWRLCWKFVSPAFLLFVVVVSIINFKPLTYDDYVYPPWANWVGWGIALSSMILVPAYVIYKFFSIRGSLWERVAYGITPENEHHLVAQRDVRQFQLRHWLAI

Key:
[1] = Metabolic stability assay using human liver microsomes; details: 5.0 μM test compound, 15 min incubation, LC-MS
Description: Compounds according to the invention were tested for metabolic stability in the following assay using human liver microsomes in comparison with prior art compound A, referred to above.
Sub-cellular tissue preparations are made by centrifugal separation after mechanical homogenization of tissue. Tissue is rinsed in ice cold 0.1 M Tris-HCl (pH 7.4) buffer to wash excess blood. Tissue is then blotted dry, weighed and chopped coarsely using surgical scissors. The tissue pieces are homogenized in 3 volumes of ice cold 0.1 M phosphate buffer (pH 7.4) for 7×10 sec. The vessel is kept in/on ice during the homogenization process. Tissue homogenates are centrifuged at 9000×g for 20 minutes at 4° C. The resulting supernatant can be stored at −80° C. and is designated ‘S9’.
The S9-fraction may be centrifuged at 100.000×g for 60 minutes (4° C.). The resulting supernatant is aspirated, aliquoted and designated ‘cytosol’. The pellet is re-suspended in 0.1 M phosphate buffer (pH 7.4) in a final volume of 1 mL per 0.5 g original tissue weight and designated ‘microsomes’.
The incubation is carried out in the following system:
• The reaction is started by the addition of 0.8 mM NADP and incubated for 15 min. • Total assay volume is 250 microliters. • The reaction is stopped by the addition of 2 volumes of DMSO (or acetonitrile). • The samples are centrifuged (10 min, 900×g) and supernatant stored at room temperature (when stopped with DMSO; no longer than 24 h) or −20° C. (when stopped with acetonitrile; no longer than 24 h) before analysis. • The supernatant material is then analysed by LC-MS to determine the extent of metabolism of the test compound in the microsomes

[2] = molecular target: human cloned 5-HT2C receptor (Homo sapiens, UniProt P28335); assay: In vitro binding affinity for 5-HT2C receptor (radioligand binding); details: human cloned 5-HT2C receptor expressed in CHO cells, [3H]mesulergine radioligand
Description: (§1) The interaction of the compounds of Formula (I) with 5-HT2A and 5-HT2C receptors was assessed in in vitro radioligand binding experiments. In general, a low concentration of a radioligand with a high binding affinity for the receptor is incubated with a sample of a tissue preparation enriched in a particular receptor (1 to 5 mg tissue) in a buffered medium (0.2 to 5 ml). During the incubation, the radioligands bind to the receptor. When equilibrium of binding is reached, the receptor bound radioactivity is separated from the non-bound radioactivity, and the receptor bound activity is counted. The interaction of the test compounds with the receptors is assessed in competition binding experiments. Various concentrations of the test compound are added to the incubation mixture containing the tissue preparation and the radioligand. Binding of the radioligand will be inhibited by the test compound in proportion to its binding affinity and its concentration. The affinities of the compounds for the 5-HT2 receptors were measured by means of radioligand binding studies conducted with: (a) human cloned 5-HT2A receptor, expressed in L929 cells using [^125I]R91150 as radioligand and (b) human cloned 5-HT2C receptor, expressed in CHO cells using [^3H]mesulergine as radioligand.

[3] = molecular target: human dopamine D2L receptor (Homo sapiens, UniProt P14416); assay: In vitro assay for D2 receptor binding; details: for D2 (pIC50): membranes of human D2L-transfected CHO cells, [3H]Spiperone radioligand; for D2/NET: ratio of D2 pIC50 to NET-inhibition pIC50
Description: Frozen membranes of human dopamine D2L receptor-transfected CHO cells were thawed, briefly homogenised using an Ultra-Turrax T25 homogeniser and diluted in Tris-HCl assay buffer containing NaCl, CaCl2, MgCl2, KCl (50, 120, 2, 1, and 5 mM respectively, adjusted to pH 7.7 with HCl) to an appropriate protein concentration optimised for specific and non-specific binding. Radioligand [^3H]Spiperone (NEN, specific activity ˜70 Ci/mmol) was diluted in assay buffer at a concentration of 2 nmol/L. Prepared radioligand (50 μl), along with 50 μl of either the 10% DMSO control, Butaclamol (10^−6 mol/l final concentration), or compound of interest, was then incubated (30 min, 37° C.) with 400 μl of the prepared membrane solution. Membrane-bound activity was filtered through a Packard Filtermate harvester onto GF/B Unifilterplates and washed with ice-cold Tris-HCl buffer (50 mM; pH 7.7; 6×0.5 ml). Filters were allowed to dry before adding scintillation fluid and counting in a Topcount scintillation counter. Percentage specific bound and competition binding curves were calculated using S-Plus software (Insightful).

[4] = molecular target: human cloned 5-HT2A receptor (Homo sapiens, UniProt P28223); assay: In vitro binding affinity for 5-HT2A receptor (radioligand binding); details: human cloned 5-HT2A receptor expressed in L929 cells, [125I]R91150 radioligand
Description: as §1

[5] = molecular target: norepinephrine transporter (NET) (Rattus norvegicus, UniProt Q63380); assay: In vitro assay for NET inhibition (radioligand binding, rat brain cortex); details: rat brain cortex membranes, [3H]Nixosetine radioligand

Row | % metabolised [1] | 5-HT2C (pIC50) [2] | D2 (pIC50) [3] | D2/NET [3] | 5-HT2A (pIC50) [4] | NET-inhibition (pIC50) [5] | SMILES
1 | 13.5% | 8.5 | 6.9 | 0.94 | 7.9 | 7.3 | C[C@H]1c2ccccc2[C@H]2C[C@H](CN(C)C)O[C@@H]2c2ccccc21
2 | – | 8.1 | <5 | <0.77 | – | 6.4 | C[C@]1(O)c2ccccc2[C@H]2C[C@H](CN)O[C@@H]2c2cc(F)ccc21
3 | – | 8.4 | 5.2 | 0.92 | 8.0 | 5.6 | NC[C@H]1C[C@@H]2c3ccccc3[C@H](O)c3ccc(F)cc3[C@H]2O1
4 | 21.85% | 9.2 | 7.5 | 0.96 | 8.9 | 7.8 | CNC[C@H]1C[C@@H]2c3ccccc3Cc3ccc(F)cc3[C@H]2O1 (relative stereo)
5 | 8% | 7.8 | 5.9 | 0.73 | 6.9 | 8.0 | C[C@@H]1c2ccccc2[C@H]2C[C@H](CN(C)C)O[C@@H]2c2ccccc21
